## Melting point values, as collected for the OPERA models

From the experimental data distributed with OPERA 2.9.

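The numbers are reported measurements, compiled and curated for the OPERA QSAR suite. The files give a single number for a compound and property, which may rest on several reports. Method and conditions are not stated for these values. The measured form (salt, isomer or mixture) is not always the one drawn. Some entries may be limits or estimates that an upstream database listed as plain numbers.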

Melting points are in °C. Cells with "–" have no entry in this list.

compound,name,MP (°C)
Oc1ccc2ccccc2c1C=NN=Cc1c(O)ccc2ccccc12,–,320
Nc1ccc2ccccc2c1/N=N/c1ccc([N+](=O)[O-])cc1,C.I. Solvent Red 5,185.5
Cc1cc(C)c(Cl)c(O)c1,"Phenol, 2-chloro-3,5-dimethyl-",116
Nc1cccc(S(=O)(=O)CCOS(=O)(=O)O)c1,2-((3-Aminophenyl)sulphonyl) hydrogensulphate,290
Cc1ccc(C(=O)N(C)c2ccc(O)cc2)cc1,"N-(4-hydroxyphenyl)-N,4-dimethylbenzamide",116
CN(CCO)S(=O)(=O)C(F)(F)C(F)(F)C(F)(F)C(F)(F)F,2-(N-(Perfluorobutylsulfonyl)-N-methylamino)ethanol,64.8
O=C(O)c1cccc2c1C(=O)c1ccccc1C2=O,–,294
O=C(CCl)c1ccc2c(c1)CCCC2,"2-Chloro-1-(5,6,7,8-tetrahydronaphthalen-2-yl)ethan-1-one",63
Nn1c(SCc2ccccc2)n[nH]c1=S,"4-amino-5-(benzylthio)-4H-1,2,4-triazole-3-thiol",158
CCCCCOC(=O)c1ccccc1O,Pentyl 2-hydroxybenzoate,-11.9
CSCCC(C(=O)O)N1C(=O)c2ccccc2C1=O (stereo unspecified),–,126
CC(O)c1cc2ccccc2o1 (stereo unspecified),1-(1-benzofuran-2-yl)ethanol,17
CC(=O)O[C@@]12CCC[C@@](C)(CC[C@@H]3[C@@H]1CC3(C)C)C2,–,6.16
CCOCC(C)OC(C)=O (stereo unspecified),1-Ethoxypropan-2-yl acetate,-79.5
COc1cc(C(=O)O)cc(OC)c1OCc1ccccc1,"4-(benzyloxy)-3,5-dimethoxybenzoic acid",157
CC1=CC(=C(c2ccc(N)c(C)c2)c2ccc(N)c(C)c2)C=CC1=N.Cl,Basic Violet 2,226.5
O=C(Nc1ccccc1Sc1ccccc1)Oc1ccccc1,Phenyl [2-(phenylthio)phenyl]carbamate,90
Cc1cc(-c2ccccc2)nc2cc(=O)[nH]n12,"7-methyl-5-phenylpyrazolo[1,5-a]pyrimidin-2-ol",232
O=C(Cc1nc2ccccc2s1)c1ccccc1,"2-(1,3-Benzothiazol-2-yl)-1-phenylethan-1-one",114
Cc1cc(N)n(CCO)n1,2-(5-Amino-3-methyl-1H-pyrazol-1-yl)ethan-1-ol,50
Cc1cccc(O)c1Cl,2-Chloro-m-cresol,56
Cl.N=C(N)C(F)(F)C(F)(F)C(F)(F)F,–,128.8
Fc1ccc(-c2cc(CBr)on2)cc1,"5-(Bromomethyl)-3-(4-fluorophenyl)-1,2-oxazole",75
C/C(=C\c1ccc(C)cc1)CCC=O,"4-Pentenal, 4-methyl-5-(4-methylphenyl)-, (4E)-",9
O=C1C=CC(=O)N1c1cccc(Cl)c1,"1-(3-Chlorophenyl)-1H-pyrrole-2,5-dione",87
CCOC(=O)c1sc(N)c(C#N)c1C,ethyl 5-amino-4-cyano-3-methylthiophene-2-carboxylate,213
O=c1[nH]c2ccc(S(=O)(=O)Cl)cc2o1,"6-Benzoxazolesulfonyl chloride, 2,3-dihydro-2-oxo-",153
Nc1ccc(N2CCCC2=O)cc1,1-(4-Aminophenyl)pyrrolidin-2-one,126
O=C(O)Cn1ccc([N+](=O)[O-])n1,(3-Nitro-1H-pyrazol-1-yl)acetic acid,173
CC(C)(C)c1n[nH]c(=S)n1N,"4-amino-5-tert-butyl-4H-1,2,4-triazole-3-thiol",187
OCCCC(F)(F)C(F)(F)C(F)(F)C(F)(F)C(F)(F)C(F)(F)F,3-(Perfluorohexyl)propanol,-4.5
CC(=O)c1cnn(C)c1C,"1-(1,5-dimethyl-1H-pyrazol-4-yl)ethanone",48
CC(C)CCNC(N)=O,"Urea, isopentyl-",44
[Mn+3].[O-]c1ccccc1/C=N/CCN(CC/N=C/c1ccccc1[O-])CC/N=C/c1ccccc1[O-],–,110
Cc1cc(C(=O)O)no1,5-METHYLISOXAZOLE-3-CARBOXYLIC ACID,200
Cc1ccc2c(CCl)cc(=O)oc2c1,4-Chloromethyl-7-methyl-chromen-2-one,171
N#Cc1cc(Cl)ccc1N=C=O,5-chloro-2-isocyanatobenzonitrile,73
C=COCCCCOC=C,"Butane, 1,4-bis(ethenyloxy)-",-7.95
NC(=O)NCCCC(=O)O,4-Ureido-butyric acid,172
Cc1nn2c(=S)[nH][nH]c2nc1=O,–,306
FC(OC(F)(F)C(F)(OC(F)(F)C(F)(OC(F)(F)C(F)(OC(F)(F)C(F)(OC(F)(F)C(F)(OC(F)(F)C(F)(F)C(F)(F)F)C(F)(F)F)C(F)(F)F)C(F)(F)F)C(F)(F)F)C(F)(F)F)C(F)(F)F (stereo unspecified),Fluoroether E-6,-72
CC1(C)COC2(CCC3=C(CC[C@@H]4[C@@H]3CC[C@@]3(C)[C@H]4CC[C@]3(O)C#N)C2)OC1,–,194.1
Cc1cc(O)cc2c1O[C@](C)(CCC[C@H](C)CCC[C@H](C)CCCC(C)C)CC2,D-delta-Tocopherol,-2.5
CN(C)c1ccc(CNC(=O)CCl)cc1,2-chloro-N-[4-(dimethylamino)benzyl]acetamide,60
O=C(O)C1CC(=O)N(c2ccccc2Cl)C1 (stereo unspecified),1-(2-chlorophenyl)-5-oxopyrrolidine-3-carboxylic acid,142
NC(=O)c1cc(Br)ccc1N,2-amino-5-bromobenzamide,184
O=C(O)c1ccc(Cl)c(S(=O)(=O)Cl)c1,4-Chloro-3-(chlorosulphonyl)benzoic acid,144
CC(C)CN(CC(C)C)C(=O)CC(=O)N(CC(C)C)CC(C)C,"N,N,N',N'-Tetraisobutyl-malonamide",52
CCCCC(CC)C(=O)[O-].CCCCC(CC)C(=O)[O-].[Mg+2] (stereo unspecified),"Hexanoic acid, 2-ethyl-, magnesium salt (2:1)",101.5
CCOC(=O)/C(Cl)=C/c1cc(N2C(=O)C3=C(CCCC3)C2=O)ccc1Cl,Cinidon-ethyl,112
CC(C)Cc1ccc(-c2csc(N)n2)cc1,"4-(4-isobutylphenyl)-1,3-thiazol-2-amine",109
CCCC1CCC(=O)CC1,4-Propylcyclohexanone,-40.5
CCOC(=O)c1ccc2c(c1)nc(C)n2CC,Ethyl 1-ethyl-2-methyl-1H-benzimidazole-5-carboxylate,71

4 of these entries, quoted again:

{"smiles": "CSCCC(C(=O)O)N1C(=O)c2ccccc2C1=O", "stereo": "stereo unspecified", "MP (°C)": "126"}
{"smiles": "O=C(O)Cn1ccc([N+](=O)[O-])n1", "name": "(3-Nitro-1H-pyrazol-1-yl)acetic acid", "MP (°C)": "173"}
{"smiles": "O=C1C=CC(=O)N1c1cccc(Cl)c1", "name": "1-(3-Chlorophenyl)-1H-pyrrole-2,5-dione", "MP (°C)": "87"}
{"smiles": "CC1=CC(=C(c2ccc(N)c(C)c2)c2ccc(N)c(C)c2)C=CC1=N.Cl", "name": "Basic Violet 2", "MP (°C)": "226.5"}